Results: patent US20250368649A1, “TETRAHYDROPYRIDOPYRIMIDINE PAN-KRAS INHIBITORS” (Mirati Therapeutics, Inc., priority 2022, published 2025)

Chains of the proteins cited; added tags and fusions are not shown. Lines headed by an entry give the natural chain unless they say otherwise; changes in a name come on top.
UniProt P01116: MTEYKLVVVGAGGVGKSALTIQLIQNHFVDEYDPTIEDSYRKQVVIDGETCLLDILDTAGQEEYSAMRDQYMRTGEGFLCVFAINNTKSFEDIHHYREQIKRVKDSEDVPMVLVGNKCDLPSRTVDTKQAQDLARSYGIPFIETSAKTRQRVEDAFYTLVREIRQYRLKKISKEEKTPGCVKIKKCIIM

Columns and labels:
Test in all cases: biochemical
KRas G12R = KRas G12R (Homo sapiens, UniProt P01116, G12R); conditions: Binding to KRas (IC50 nM) G12R, TR-FRET displacement
KRas G12V = KRas G12V (Homo sapiens, UniProt P01116, G12V); conditions: Binding to KRas (IC50 nM) G12V, TR-FRET displacement
KRas G12D = KRas G12D (Homo sapiens, UniProt P01116, G12D); conditions: Binding to KRas (IC50 nM) G12D, TR-FRET displacement

Row | IC50 (KRas G12R) | IC50 (KRas G12V) | IC50 (KRas G12D) | SMILES
1 | < 2 nM | < 2 nM | 2 nM | CCc1c(F)ccc2cc(O)cc(N3CCc4c(nc(OC[C@@]56CCCN5C[C@H](F)C6)nc4N4CCCn5nc(C(=O)N6CCC7CC7C6)cc5C4)C3)c12 (stereo partly drawn) [Example 332, 3-azabicyclo[4.1.0]heptan-3-yl(5-(7-(8-ethyl-7-fluoro-3-hydroxynaphthalen-1-yl)-2-(((2R,7aS)-2-fluorohexahydro-1H-pyrrolizin-7a-yl)methoxy)-5,6,7,8-tetrahydropyrido[3,4-d]pyrimidin-4-yl)-5,6,7,8-tetrahydro-4H-pyrazolo[1,5-a][1,4]diazepin-2-yl)methanone]
2 | < 2 nM | 2 nM | 2 nM | CCc1c(F)ccc2cc(O)cc(N3CCc4c(nc(OC[C@@]56CCCN5C[C@H](F)C6)nc4N4CCCn5nc(NC)c(Br)c5C4)C3)c12 [Example 394, 4-(4-(3-bromo-2-(methylamino)-7,8-dihydro-4H-pyrazolo[1,5-a][1,4]diazepin-5(6H)-yl)-2-(((2R,7aS)-2-fluorohexahydro-1H-pyrrolizin-7a-yl)methoxy)-5,6-dihydropyrido[3,4-d]pyrimidin-7(8H)-yl)-5-ethyl-6-fluoronaphthalen-2-ol]

Further lines, the molecule ahead of its results:

Row | SMILES | IC50 (KRas G12R) | IC50 (KRas G12V) | IC50 (KRas G12D)
3 | CCc1c(F)ccc2cc(O)cc(N3CCc4c(nc(OC[C@@]56CCCN5C[C@H](F)C6)nc4N4CCCn5nc(C(=O)N6CC7CCC(C6)O7)cc5C4)C3)c12 [Example 333, 8-oxa-3-azabicyclo[3.2.1]octan-3-yl(5-(7-(8-ethyl-7-fluoro-3-hydroxynaphthalen-1-yl)-2-(((2R,7aS)-2-fluorohexahydro-1H-pyrrolizin-7a-yl)methoxy)-5,6,7,8-tetrahydropyrido[3,4-d]pyrimidin-4-yl)-5,6,7,8-tetrahydro-4H-pyrazolo[1,5-a][1,4]diazepin-2-yl)methanone] | < 2 nM | < 2 nM | < 2 nM
4 | CCc1c(F)ccc2cc(O)cc(N3CCc4c(nc(OC[C@@]56CCCN5C[C@H](F)C6)nc4N4CCCn5nc(C(=O)N6CCC7CC6CO7)cc5C4)C3)c12 (stereo partly drawn) [Example 337, 6-oxa-2-azabicyclo[3.2.1]octan-2-yl(5-(7-(8-ethyl-7-fluoro-3-hydroxynaphthalen-1-yl)-2-(((2R,7aS)-2-fluorohexahydro-1H-pyrrolizin-7a-yl)methoxy)-5,6,7,8-tetrahydropyrido[3,4-d]pyrimidin-4-yl)-5,6,7,8-tetrahydro-4H-pyrazolo[1,5-a][1,4]diazepin-2-yl)methanone] | < 2 nM | < 2 nM | < 2 nM
5 | CCc1c(F)ccc2cc(O)cc(N3CCc4c(nc(OC[C@@]56CCCN5C[C@H](F)C6)nc4N4CCCn5nc(C(=O)NC)c(F)c5C4)C3)c12 [Example 362, 5-(7-(8-ethyl-7-fluoro-3-hydroxynaphthalen-1-yl)-2-(((2R,7aS)-2-fluorohexahydro-1H-pyrrolizin-7a-yl)methoxy)-5,6,7,8-tetrahydropyrido[3,4-d]pyrimidin-4-yl)-3-fluoro-N-methyl-5,6,7,8-tetrahydro-4H-pyrazolo[1,5-a][1,4]diazepine-2-carboxamide] | < 2 nM | < 2 nM | < 2 nM
6 | CCc1c(F)ccc2cc(O)cc(N3CCc4c(nc(OC[C@@]56CCCN5C[C@H](F)C6)nc4N4CCCn5nc(C(=O)NC(C)C)c(F)c5C4)C3)c12 [Example 366, 5-(7-(8-ethyl-7-fluoro-3-hydroxynaphthalen-1-yl)-2-(((2R,7aS)-2-fluorohexahydro-1H-pyrrolizin-7a-yl)methoxy)-5,6,7,8-tetrahydropyrido[3,4-d]pyrimidin-4-yl)-3-fluoro-N-isopropyl-5,6,7,8-tetrahydro-4H-pyrazolo[1,5-a][1,4]diazepine-2-carboxamide] | < 2 nM | < 2 nM | < 2 nM
